# ChEMBL document CHEMBL5143629, “Synthesis and evaluation of dual fatty acid amide hydrolase-monoacylglycerol lipase inhibition and antinociceptive activities of 4-methylsulfonylaniline-derived semicarbazones” (Bioorg Med Chem, 2022)
# Amino acid sequences for entries named in this document (tags omitted).
# UniProt Q99685, whole entry: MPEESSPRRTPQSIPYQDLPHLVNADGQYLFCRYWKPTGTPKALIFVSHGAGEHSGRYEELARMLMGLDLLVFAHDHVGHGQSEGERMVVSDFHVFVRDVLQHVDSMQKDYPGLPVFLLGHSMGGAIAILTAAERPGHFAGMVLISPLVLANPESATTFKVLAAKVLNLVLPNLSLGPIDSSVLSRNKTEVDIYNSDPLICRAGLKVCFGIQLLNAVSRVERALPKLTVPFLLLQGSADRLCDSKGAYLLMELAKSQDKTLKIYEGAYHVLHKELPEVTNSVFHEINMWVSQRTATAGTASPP
# Biological target: Monoglyceride lipase (Homo sapiens, UniProt Q99685)
# Experiment: Inhibition of human recombinant MAGL incubated for 5 mins followed by substrate addition by cayman fluorescence based multimode microplate reader assay
structure (smiles),measurement,value
O=C(Oc1ccc([N+](=O)[O-])cc1)N1CCN(Cc2cccc(Oc3ccccc3)c2)CC1,IC50,4 nM
